The values that follow come from patent EP2966079B1, “PYRIDOPYRIMIDINE OR PYRIMIDOPYRIMIDINE COMPOUND, PREPARATION METHOD, PHARMACEUTICAL COMPOSITION AND USE THEREOF” (Shanghai Institute of Materia Medica, Chinese Academy of …, priority 2013, dated 2014).

By IC50 is commonly meant the concentration at which inhibition is half-maximal.

In test [1] the test system is human brain glioma U87MG. Put plainly: Cell proliferation assay (MTS method), U87MG. The format is cell-based. The note with it: U-87 MG, 72 h, read-out: U87MG IC50 (µM). The method, then:
(§1) Cell proliferation assay was based on two types of cell lines, i.e., human brain glioma U87MG and human prostate cancer LNCap, both of which were from ATCC. U87MG and LNCap contain PTEN gene deletion, and belongs to mTOR signal-dependent tumor cells. Cell culture media and related reagents were from GIBCO. U87MG cells were cultured in a MEM complete medium (containing 10% fetal bovine serum, 100 U/mL penicillin and 100 µg/mL streptomycin). […] Cells/compound was cultured for 3 days, and MTS method was used to test cell proliferation. MTS and PMS were purchased from Sigma company, a stock solution of MTS/PMS (20:1) was added into the test cells with 20 µL/well. After a suitable time of incubation, the proliferation assay results was recorded on a 96 well plate microplate reader. Relative cell viability% = (A490valueofadministeredgroup−lightvalueoftheblankgroup)/(lightvalueofDMSOgroup−lightvalueofblankgroup) × 100%. [formula]
(§2) The experimental data were processed with Microsoft Office Excel and Graphpad PRISM 5 to calculate IC50.
For orientation: Formazan colour is commonly taken as a measure of viable cells.

In test [2] the test system is human prostate cancer LNCap. Nature of the test: Cell proliferation assay (MTS method), LNCap. It counts as cell-based. The note with it: 72 h, read-out: LNCap IC50 (µM). The method, then:
as §1, §2

Regarding `COc1ccc(-c2ccc3c(N4C5CCC4COC5)nc(N4C[C@@H](C)O[C@@H](C)C4)nc3n2)cc1CO` [Compound 5, 5-(4-(3-oxa-8-azabicyclo[3.2.1]octan-8-yl)-2-((2S,6R)-2,6-dimethylmorpholine)pyrido[2,3-d]pyrimidin-7-yl)-2-methoxyphenylmethanol], the IC50 in test [1] worked out at 0.32 µM; in test [2], 0.06 µM.
The corresponding values for `COc1ccc(-c2cc3nc(N4CCOC[C@@H]4C)nc(N4C[C@@H](C)O[C@@H](C)C4)c3cn2)cc1CO` [Compound 16, 5-(4-((2S,6R)-2,6-dimethylmorpholinyl-2-((S)-3-methylmorpholinyl)pyrido[4,3-d]pyrimidin-7-yl)-2-methoxyphenyl)methanol] are over 60 µM and over 60 µM.
The corresponding values for `COCCN(C)c1nc(N2C3CCC2COC3)c2ccc(-c3ccc(OC)c(CO)c3)nc2n1` [Compound 6, 5-(4-(3-oxa-8-azabicyclo[3.2.1]octan-8-yl)-2-((2-methoxyethyl)methylamino)pyrido[2,3-d]pyrimidin-7-yl)-2-methoxyphenylmethanol] are 1.07 µM and 0.22 µM.
The corresponding values for `c1ccc(-c2cc3nc(N4CC5CCC(C4)O5)nc(N4CCOCC4)c3cn2)cc1` [Compound 28, 3-(4-morpholinyl-7-phenylpyrido[4,3-d]pyrimidin-2-yl)-8-oxa-3-azabicyclo[3.2.1]octane] are 6.44 µM and 4.2 µM.
On to `C[C@H]1COCCN1c1nc(N2CCOC[C@@H]2C)c2cnc(-c3ccccc3)nc2n1` [Compound 33, (3S,3'S)-4,4'-(7-phenylpyrimido[4,5-d]pyrimidin-2,4-diyl)-di(3-methylmorpholine)], for which the figures for the IC50 in test [1] and in test [2] were 17.7 µM and 2.03 µM, respectively.
The like results for `COc1ccc(-c2ccc3c(N4C5CCC4COC5)nc(N4CCOC[C@@H]4C)nc3n2)cc1CO` [Compound 3, 5-(4-(3-oxa-8-azabicyclo[3.2.1]octan-8-yl)-2-((S)-3-methylmorpholine)pyrido[2,3-d]pyrimidin-7-yl)-2-methoxyphenylmethanol] were, in that order, 0.11 µM and under 0.027 µM.
The like results for `CNC(=O)c1cccc(-c2ccc3c(N4CC5CCC(C4)O5)nc(N4CCOC[C@@H]4C)nc3n2)c1` [Compound 49, 3-(4-(8-oxa-3-azabicyclo[3.2.1]octan-3-yl)-2-((S)-3-methylmorpholinyl)pyrido[2,3-d]pyrimidin-7-yl)-N-methylbenzamide] were, in that order, 1 µM and 0.5 µM.
The like results for `COc1ccc(-c2cc3nc(N4CCOC[C@@H]4C)nc(N4CC5CCC(C4)O5)c3cn2)cc1CO` [Compound 22, (5-(4-(8-oxa-3-azabicyclo[3.2.1]octan-3-yl)-2-((S)-3-methylmorpholinyl)pyrido[4,3-d]pyrimidin-7-yl)-2-methoxyphenyl)methanol] were, in that order, 18.4 µM and 2.29 µM.
Turning to `COc1ccc(-c2cc3nc(N4CCOC[C@@H]4C)nc(N4CCOC[C@@H]4C)c3cn2)cc1CO` [Compound 18, (5-(2,4-di((S)-3-methylmorpholinyl)pyrido[4,3-d]pyrimidin-7-yl)-2-methoxyphenyl)methanol], the IC50 in test [1] was found to be 2.58 µM; in test [2], 1.2 µM.
In the case of `COc1ccc(-c2cc3nc(N4CCOCC4)nc(N4C5CCC4COC5)c3cn2)cc1CO` [Compound 24, (5-(4-(1R,5S)-3-oxa-8-azabicyclo[3.2.1]octan-8-yl)-2-morpholinylpyrido[4,3-d]pyrimidin-7-yl)-2-methoxyphenyl)methanol], the IC50 is 55.9 µM in test [1] and over 60 µM in test [2].
Take `c1ccc(-c2cc3nc(N4CCOCC4)nc(N4CCOCC4)c3cn2)cc1` [Compound 26, (4,4'-(7-phenylpyrido[4,3-d]pyrimidin-2,4-diyl)-dimorpholine)]: the IC50 is 6.35 µM in test [1] and 2.07 µM in test [2].
With `CNC(=O)c1cccc(-c2ccc3c(N4C5CCC4COC5)nc(N4CCOCC4)nc3n2)c1` [Compound 43, 3-(4-(3-oxa-8-azabicyclo[3.2.1]octan-8-yl)-2-morpholinylpyrido[2,3-d]pyrimidin-7-yl)-N-methylbenzamide], the values for the IC50 in test [1] and in test [2] were 2.08 µM and 0.76 µM, respectively.
As for `C[C@H]1COCCN1c1nc(N2CCOC[C@@H]2C)c2cnc(-c3ccccc3)cc2n1` [Compound 30, (3S,3'S)-4,4'-(7-phenylpyrido[4,3-d]pyrimidin-2,4-diyl)-di(3-methylmorpholine)], the IC50 worked out at 1.14 µM in test [1] and 0.361 µM in test [2].
The like results for `c1ccc(-c2ncc3c(N4CC5CCC(C4)O5)nc(N4CC5CCC(C4)O5)nc3n2)cc1` [Compound 34, 3,3'-(7-phenylpyrimido[4,5-d]pyrimidin-2,4-diyl)-di(8-oxa-3-azabicyclo[3.2.1]octane)] were, in that order, 9.32 µM and 0.99 µM.
The like results for `CNC(=O)c1cccc(-c2ccc3c(N4CCOC[C@@H]4C)nc(N4C5CCC4COC5)nc3n2)c1` [Compound 37, 3-(2-(3-oxa-8-azabicyclo[3.2.1]octan-8-yl)-4-((S)-3-methylmorpholinyl)pyrido[2,3-d]pyrimidin-7-yl)-N-methylbenzamide] were, in that order, 0.24 µM and 0.09 µM.
The like results for `COc1ccc(-c2ccc3c(N4C5CCC4COC5)nc(N4C5CCC4COC5)nc3n2)cc1CO` [Compound 1, 5-(2,4-di(3-oxa-8-azabicyclo[3.2.1]octan-8-yl)pyrido[2,3-d]pyrimidin-7-yl)-2-methoxyphenylmethanol] were, in that order, 0.33 µM and under 0.027 µM.
On to `COc1ccc(-c2cc3nc(N4CCOCC4)nc(N4CCOCC4)c3cn2)cc1CO` [Compound 13, (5-(2,4-dimorpholinylpyrido[4,3-d]pyrimidin-7-yl)-2-methoxyphenyl)methanol], for which the figures for the IC50 in test [1] and in test [2] were over 60 µM and 17.9 µM, respectively.
Regarding `COc1ccc(-c2cc3nc(N4CCOCC4)nc(N4CC5CCC(C4)O5)c3cn2)cc1CO` [Compound 21, (5-(4-(8-oxa-3-azabicyclo[3.2.1]octan-3-yl)-2-morpholinylpyrido[4,3-d]pyrimidin-7-yl)-2-methoxyphenyl)methanol], the figures for the IC50 in test [1] and in test [2] were 12.7 µM and 6.09 µM, respectively.
The corresponding values for `COc1ccc(-c2ccc3c(N4C5CCC4COC5)nc(N4CCOCC4)nc3n2)cc1CO` [Compound 4, 5-(4-(3-oxa-8-azabicyclo[3.2.1]octan-8-yl)-2-morpholinylpyrido[2,3-d]pyrimidin-7-yl)-2-methoxyphenylmethanol] are 0.24 µM and 0.06 µM.
The like results for `CNC(=O)c1cccc(-c2ccc3c(N4C5CCC4COC5)nc(N4C[C@@H](C)O[C@@H](C)C4)nc3n2)c1` [Compound 45, 3-(4-(3-oxa-8-azabicyclo[3.2.1]octan-8-yl)-2-((2S,6R)-2,6-dimethylmorpholinyl)pyrido[2,3-d]pyrimidin-7-yl)-N-methylbenzamide] were, in that order, 1.4 µM and 0.67 µM.
The corresponding values for `CNC(=O)c1cccc(-c2ccc3c(N4C5CCC4COC5)nc(N4C5CCC4COC5)nc3n2)c1` [Compound 35, 3-(2,4-di(3-oxa-8-azabicyclo[3.2.1]octan-8-yl)pyrido[2,3-d]pyrimidin-7-yl)-N-methylbenzamide] are 0.51 µM and 0.24 µM.
